scFv variants of Ab-91 (heavy chain) against a SARS-CoV-2 spike peptide

All variants were tested on one target, the spike HR2 peptide PDVDLGDISGINAS (SARS-CoV-2).

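Phage display of a naive human antibody library on the peptide gave the parent. Library AAYL51 holds single substitutions and randomly drawn double and triple substitutions in the CDRs. The scFvs were displayed on barcoded MATa yeast, the peptide on MATalpha yeast. Pairs that bind mate more often; barcode pairs of the diploids are counted by sequencing. A regression on co-assayed BCL2-family reference pairs converts the normalised counts of each replicate to an apparent Kd. Mating was done three times.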

Parent: Ab-91, a human scFv built as VL, a 15-residue (Gly4Ser)3 linker, VH. Only the CDRs of the heavy chain vary.
VL: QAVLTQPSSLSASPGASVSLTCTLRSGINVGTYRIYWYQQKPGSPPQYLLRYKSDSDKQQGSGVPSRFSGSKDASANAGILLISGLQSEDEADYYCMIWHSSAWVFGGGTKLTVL
VH: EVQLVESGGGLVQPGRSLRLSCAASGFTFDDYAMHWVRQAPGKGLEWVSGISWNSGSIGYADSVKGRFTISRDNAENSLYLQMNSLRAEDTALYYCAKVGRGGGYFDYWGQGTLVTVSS

Positions count from residue 1 of the parent VH; S63G puts G in place of S. Each Kd is an estimate from the mating assay, the geometric mean of the replicates in which the pair was seen; lower is stronger. A pair that was not seen in any replicate is written "nd"; this usually means weak binding, but a binder can also be missed. The list is sorted by this average, lowest first, undetected variants last. Background: pairings of library AAYL51 with three empty control strains gave a value in 21% of cases (median 34 µM, 5th percentile 1.8 µM). Values in that range, when seen in few replicates, are hard to tell from nonspecific mating. For each scFv, signals with the empty controls are counted beside the result. In this assay the parent's reference entry averaged 72 nM; its copy inside this library read 7.5 nM.

changes | Kd | detected | signal with controls
S63G+V99E | 12 nM | 3/3 | 0/9
S55M+I58T+S63Q | 34 nM | 3/3 | 1/9
D31E+Y32F+S55P | 62 nM | 3/3 | 0/9
F29P+Y32Q+Y105Q | 150 nM | 1/3 | 0/9
S57F+V64S+Y108V | 540 nM | 3/3 | 0/9
V99L+D107Q | 1.0 µM | 1/3 | 2/9
F29L+D30W+Y32D | 2.6 µM | 2/3 | 0/9
N54V+R101F+D107N | 3.4 µM | 1/3 | 2/9
S52F+I58E+G100S | 5.7 µM | 1/3 | 0/9
D31N+S55P+Y60L | 5.9 µM | 3/3 | 4/9
S63Q+V99T+G103E | 9.2 µM | 2/3 | 4/9
A33R+H35C+G103M | 12 µM | 2/3 | 3/9
D62G+G102Q+F106E | 16 µM | 3/3 | 7/9
S52W+V64P+K65A | 19 µM | 1/3 | 1/9
T28F+F29H+Y105N | 21 µM | 1/3 | 4/9
S55T+D107T | 22 µM | 2/3 | 2/9
I51D+N54F+G56F | 25 µM | 1/3 | 2/9
F29W+D31E+A61D | 29 µM | 2/3 | 4/9
G59L+D62R+S63K | 32 µM | 1/3 | 3/9
F27H+D31L+D107Y | 44 µM | 3/3 | 1/9
Y32E+S52R+G103A | 49 µM | 2/3 | 4/9
M34V+N54W+G100D | 49 µM | 1/3 | 0/9
M34E+G50L+V99I | 66 µM | 3/3 | 4/9
I51C+S52I+G59Q | 76 µM | 1/3 | 1/9
V64E+V99W | 80 µM | 2/3 | 2/9
M34D+I58R | 110 µM | 1/3 | 2/9
G50S+G59H+K65M | 110 µM | 1/3 | 3/9
S55V+G103W+Y105H | 140 µM | 1/3 | 6/9
G26I+S57G+Y105K | 170 µM | 2/3 | 4/9
W53Q+G59F | 180 µM | 2/3 | 6/9
I51A+G56P+R101M | 190 µM | 2/3 | 3/9
S52P+Y105T+Y108L | 210 µM | 2/3 | 1/9
S52Y+V64N+V99C | 230 µM | 1/3 | 5/9
H35A+I51P | 340 µM | 2/3 | 3/9
A61D+G102Y+Y105M | 370 µM | 1/3 | 2/9
T28L+K65W+D107Y | 380 µM | 2/3 | 3/9
G50Y+G104I+Y105P | 400 µM | 2/3 | 0/9
T28A+G59H+G104P | 570 µM | 1/3 | 5/9
F27S+G104K | 870 µM | 1/3 | 2/9
S52F+W53I | nd | 0/3 | 2/9
I51V+G59E+G100Y | nd | 0/3 | 1/9
Y32F+N54A+G100N | nd | 0/3 | 1/9
A61E+D62Y | nd | 0/3 | 2/9
G26C+H35D+G104K | nd | 0/3 | 0/9
S55I+G103P | nd | 0/3 | 0/9
S55M+I58A | nd | 0/3 | 2/9
M34V+D62T+G103R | nd | 0/3 | 0/9
F27K+Y32T+R101H | nd | 0/3 | 0/9
G26S+M34V+S55L | nd | 0/3 | 0/9
D30Y+V64P+G103T | nd | 0/3 | 1/9
A61V+S63E+D107M | nd | 0/3 | 0/9
G50M+F106T | nd | 0/3 | 1/9
Y60N+D62F+K65I | nd | 0/3 | 2/9
D30W+S52W+W53A | nd | 0/3 | 0/9
G26P+G56V+V99K | nd | 0/3 | 3/9
F29Q+Y32E+G104W | nd | 0/3 | 1/9
M34W+A61G+D62A | nd | 0/3 | 2/9
G26F+F29S+S52K | nd | 0/3 | 0/9
G50M+S52Y+G103Y | nd | 0/3 | 0/9
G50Y+Y60D | nd | 0/3 | 1/9
G26C+M34D+H35V | nd | 0/3 | 1/9
I58A+V64S+G100M | nd | 0/3 | 0/9

Repeated from above, the 6 best binders with a signal in all replicates:

changes,Kd,detected,signal with controls
S63G+V99E,12 nM,3/3,0/9
S55M+I58T+S63Q,34 nM,3/3,1/9
D31E+Y32F+S55P,62 nM,3/3,0/9
S57F+V64S+Y108V,540 nM,3/3,0/9
D31N+S55P+Y60L,5.9 µM,3/3,4/9
D62G+G102Q+F106E,16 µM,3/3,7/9

The measurements come from Engelhart et al. 2022 (doi:10.1038/s41597-022-01779-4) through the FLAb antibody collection.